AlphaSeq binding of Ab-91 heavy chain variants to a spike HR2 peptide

The target is the same throughout: PDVDLGDISGINAS, from the HR2 region of SARS-CoV-2 spike.

Parent scFv Ab-91: VL joined to VH by three GGGGS repeats. Changes lie in the heavy chain CDRs alone.
VL: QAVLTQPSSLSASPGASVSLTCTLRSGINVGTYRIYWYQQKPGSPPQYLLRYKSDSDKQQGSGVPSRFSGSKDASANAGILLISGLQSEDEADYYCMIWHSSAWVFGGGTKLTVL
VH: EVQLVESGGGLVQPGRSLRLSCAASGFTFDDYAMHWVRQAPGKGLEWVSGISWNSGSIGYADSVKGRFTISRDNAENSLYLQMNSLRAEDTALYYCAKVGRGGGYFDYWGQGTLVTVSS

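The starting antibody came from a phage panning campaign against this peptide. Variants in AAYL51 differ from the parent at up to three CDR positions; double and triple changes were sampled at random. Affinity was read by AlphaSeq, a pooled yeast mating assay with surface-displayed partners. Binding brings cells together so that they mate, and sequencing counts the barcode pairs among the diploids. Each replicate has its own calibration line, from reference interactions of the BCL2 family. The assay was run in three technical replicates.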

Variants are written as CDR1, CDR2 and CDR3 of the heavy chain (limits as in the source). Parent: GFTFDDYAMH, GISWNSGSIGYADSVK, VGRGGGYFDY. Numbers give log10(Kd / nM), so 0 is 1 nM and 3 is 1 µM. Smaller is tighter. "nd" means that the variant was in the library but no mating with the target was seen in that replicate; the authors take this as a sign of poor binding, and no number exists. Three control strains display no target. For library AAYL51, 21% of the pairings with them gave a signal, with a median of 4.54 and one signal in twenty below 3.26, so weak values seen in few replicates may be background. For reference, the parent read 1.86 as the reference entry and 0.88 as a member of this library.

"replicates, log10 nM",CDR-H1,CDR-H2,CDR-H3
nd nd nd,GFTFDDYAMR,GISWNSGMIIYADSVK,VGRGGGYFDY
nd nd nd,GFTFDDYAMH,GIAWNSGSIGYADSVK,VGRGDGRFDY
nd 5.38 nd,GFTFDDYAMH,GISWNSGSCGYRDSVK,VGRGGGYFGY
3.89 3.76 nd,GFTFDDYAMH,GISWNSGSIGYADSVK,VGVGVGYFCY
nd nd nd,VFTFDLYAMH,GTSWNSGSIGYADSVK,VGRGGGYFDY
nd nd nd,GFTFDDYAMH,GASWNSGSIGYADSTK,VGRGGGYFDY
nd nd nd,GFTFDDYAMF,GISWNSGSIGYADSVK,KGRGGGRFDY
1.69 1.29 0.99,GFTTDDYAMH,GISWNSGSIGYADSVK,KGRGGGYFDK
nd nd nd,GFTFDDYAMH,GISRNSGSIGYADSRK,VGRGGHYFDY
nd nd nd,GFTFDDYAMH,KISWNSGSIGYADSVK,AIRGGGYFDY
3.80 nd nd,GFTFDDDAMH,GISWNSGSQGYADSVK,VGRGGGMFDY
4.05 nd nd,GFTFDDYAMH,GYSWNSGSIGYADSVK,VGREGPYFDY
3.91 nd nd,GFLFDDYAMH,GISWNSGSIGYADSVA,VGRGGSYFDY
nd 3.87 nd,YFTFDDYAMH,GISWNSGSIGYADSVK,VGRGGGYFDK
2.39 2.58 2.20,GFTFDDYAMH,GISWNSGSIGYADSVK,VGRGGGLWDY
nd nd nd,IFTFDDYAMH,GISWNSGSIGYADSVK,VGRGVGYFDY
3.59 3.91 3.79,GFTFDDYAMH,GISWNSGSIGLADSVD,VGSGGGYFDY
nd 5.80 4.54,GFTFDDYAMH,GFSWNSESIGYADSVK,VGRGGGYFDY
4.07 5.28 nd,GFTFDDYAKQ,GISWNSGSIGYADFVK,VGRGGGYFDY
nd nd nd,GFTKDKYAMH,GISNNSGSIGYADSVK,VGRGGGYFDY
4.66 4.41 nd,GFTFDHYAMH,GISWNSGSIFYADSVK,VGRGGGKFDY
3.77 3.69 3.48,GFTFDDYAMH,GISWNSGSIGYADSVI,VGRGGGYHDC
2.85 nd nd,GFTFDDYAMH,GISWWSGSIGYADSVK,VGRGDGYFDG
nd nd nd,GFTFDDYAMH,GISWNSGSSGYADSVK,VGRGGAYFDG
nd nd nd,GFTFDDYAMH,GISWNSGFIGYADSVK,VGRGGGYFYY
3.88 nd nd,GFIFDCYAMH,GIGWNSGSIGYADSVK,VGRGGGYFDY
3.98 4.83 5.49,GFTFDDYAMT,GISWNSGSIMYADSVK,VGGGGGYFDY
nd 5.92 nd,GFTFDDYAMH,GISWNSGSIYYAHSIK,VGRGGGYFDY
nd nd nd,YFTFDDYAMH,MISWNSGSIGYADSVK,VGRGGGYFDE
4.99 5.38 5.47,GFTFDDYAMH,KISWNSGQIGYADSVA,VGRGGGYFDY
nd 4.32 nd,GFTFDDYAMH,GISHNSGSIGYADDVH,VGRGGGYFDY
nd 4.83 nd,GFTFDDYAMH,GISWNSVSIGYLDSVK,VGRGHGYFDY
4.89 5.24 nd,GFTFDDYAMH,GISWGSGSIGYAKSVK,VGAGGGYFDY
nd nd nd,GFTFDDYAMH,GISWNSGSIGYADSFK,LGDGGGYFDY
4.79 nd 5.70,GFTQDDYAMR,GIQWNSGSIGYADSVK,VGRGGGYFDY

Reference: Engelhart et al. 2022, doi:10.1038/s41597-022-01779-4. File: FLAb, binding data.